One may read the EC50 as the concentration at which the effect is half-maximal. The Ki is the equilibrium dissociation constant of an inhibitor or competing ligand from its target.

Sequences of proteins named here, by UniProt entry; tags and fusion partners are left off. Residues count along the entry.
UniProt P28335, 33-458: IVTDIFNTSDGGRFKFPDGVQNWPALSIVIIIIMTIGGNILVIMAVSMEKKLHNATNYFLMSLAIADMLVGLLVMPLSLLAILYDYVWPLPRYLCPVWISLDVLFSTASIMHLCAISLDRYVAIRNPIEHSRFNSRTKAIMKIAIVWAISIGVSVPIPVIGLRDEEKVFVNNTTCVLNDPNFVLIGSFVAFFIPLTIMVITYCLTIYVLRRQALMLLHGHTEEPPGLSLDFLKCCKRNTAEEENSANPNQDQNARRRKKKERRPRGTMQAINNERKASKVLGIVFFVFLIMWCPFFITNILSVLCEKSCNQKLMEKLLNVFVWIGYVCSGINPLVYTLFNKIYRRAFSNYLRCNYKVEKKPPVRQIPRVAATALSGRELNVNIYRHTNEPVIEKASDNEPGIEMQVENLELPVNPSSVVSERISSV

This passage reports EC50 and Ki results from patent US20100160411A1, “BENZOXATHIINE AND BENZOXATHIOLE DERIVATIVES AND USES THEREOF” (Wyeth, priority 2006, published 2010).

The target of one test is human 5-HT2C receptor (Homo sapiens, UniProt P28335). The experiment in a line: calcium mobilization (FLIPR) in CHO cells stably expressing the human 5-HT2C receptor. The note with it: reference compounds, Fluo-3-AM. In kind it is cell-based. Background: A change in cytosolic calcium serves as a functional read-out for many receptors and channels.
The target of test [1] is T1, human 5-hydroxytryptamine-2C (h5-HT2C) receptor (Homo sapiens, UniProt P28335).
T1 construct: expressed in transfected cells; host or cells: CHO (Chinese Hamster Ovary) cells; membrane preparation
The experiment in a line: [125I]DOI binding to membranes of CHO cells expressing the h5-HT2C receptor. The note with it: reference compounds; 95% confidence interval in parentheses; [125I]DOI radioligand, CHO cell membranes.

`Cn1ccc2cc3c(cc21)CCN3C(=O)Nc1cccnc1`: the EC50 on human 5-HT2C receptor turned out to be 13 nM.

`Clc1cccc(N2CCNCC2)c1` [mCPP, meta-chlorophenylpiperazine]: the inhibition constant Ki in test [1] was 6.5 nM. On human 5-HT2C receptor, the EC50 is 5.4 nM.
